Test results reported in patent US4542137A, “Alkylaminodesoxy-1.4;3.6-dianhydrohexitol nitrates substituted by purine bases and pharmaceutical compositions” (priority 1980, dated 1985).
Where two headings read alike, the source gives them in different places.

Assays:
mongrel cats [1] = assay: inotropic and frequency-lowering heart circulation effectiveness on mongrel cats, intravenous; type: in vivo; set-up: heart frequency previously: unit not given beside the values; details: cat; for blood pressure afterwards / heart frequency afterwards: after; for blood pressure previously / heart frequency previously: before; for blood pressure Δ / heart frequency Δ: change
mongrel cats [2] = assay: inotropic and frequency-lowering heart circulation effectiveness on mongrel cats, intraduodenal; type: in vivo; details: cat, 5 mg/kg intraduodenal
mongrel dogs = assay: circulatory pharmacological effectiveness on narcotised dogs, intravenous; type: in vivo, dog
[3] = system: isolated rat aorta preparations; assay: spasmolytic effectiveness on isolated rat aorta preparations (noradrenaline- and potassium chloride-induced contractions)

For `O=[N+]([O-])O[C@H]1CO[C@H]2[C@@H]1OC[C@H]2O[N+](=O)[O-]`, the “blood pressure WD” value (mongrel cats [1]; 0.25 mg/kg i.v.) was 13.00 min, the blood pressure afterwards (mongrel cats [1]; 0.25 mg/kg i.v.) was 81.17 and the heart frequency afterwards (mongrel cats [1]; 0.25 mg/kg i.v.) was 171.67. For the same compound, the blood pressure previously (mongrel cats [1]; 0.25 mg/kg i.v.) was 98.83, the heart frequency previously (mongrel cats [1]; 0.25 mg/kg i.v.) was 165.33 and the “blood pressure Δ” value (mongrel cats [1]; 0.25 mg/kg i.v.) was -17.66. For the same compound, the “heart frequency Δ” value (mongrel cats [1]; 0.25 mg/kg i.v.) was “+6.34”, the “blood pressure WD” value (mongrel cats [1]; 0.50 mg/kg i.v.) was 16.50 min and the blood pressure afterwards (mongrel cats [1]; 0.50 mg/kg i.v.) was 73.67. For the same compound, the heart frequency afterwards (mongrel cats [1]; 0.50 mg/kg i.v.) was 173.33, the blood pressure previously (mongrel cats [1]; 0.50 mg/kg i.v.) was 95.83 and the heart frequency previously (mongrel cats [1]; 0.50 mg/kg i.v.) was 167.00. For the same compound, the “blood pressure Δ” value (mongrel cats [1]; 0.50 mg/kg i.v.) was -22.16, the “heart frequency Δ” value (mongrel cats [1]; 0.50 mg/kg i.v.) was “+6.33” and the “blood pressure WD” value (mongrel cats [1]; 1.00 mg/kg i.v.) was 16.00 min. The blood pressure afterwards (mongrel cats [1]; 1.00 mg/kg i.v.) was 69.17, the heart frequency afterwards (mongrel cats [1]; 1.00 mg/kg i.v.) was 174.33 and the blood pressure previously (mongrel cats [1]; 1.00 mg/kg i.v.) was 96.50. For the same compound, the heart frequency previously (mongrel cats [1]; 1.00 mg/kg i.v.) was 166.67, the “blood pressure Δ” value (mongrel cats [1]; 1.00 mg/kg i.v.) was -27.33 and the “heart frequency Δ” value (mongrel cats [1]; 1.00 mg/kg i.v.) was “+7.66”. For the same compound, the blood pressure afterwards (mongrel cats [1]; 2.50 mg/kg i.v.) was 60.67, the heart frequency afterwards (mongrel cats [1]; 2.50 mg/kg i.v.) was 170.67 and the blood pressure previously (mongrel cats [1]; 2.50 mg/kg i.v.) was 92.50. The heart frequency previously (mongrel cats [1]; 2.50 mg/kg i.v.) was 162.00, the “blood pressure Δ” value (mongrel cats [1]; 2.50 mg/kg i.v.) was -31.83 and the “heart frequency Δ” value (mongrel cats [1]; 2.50 mg/kg i.v.) was “+8.67”. It also gave a blood pressure (mongrel cats [2]; 0 min) of 104.3 ± 7.7 mm. Hg, a frequency (mongrel cats [2]; 0 min) of 174.3 ± 9.3 min⁻¹ and a blood pressure (mongrel cats [2]; 10 min) of 90.4 ± 12.5 mm. Hg. The frequency (mongrel cats [2]; 10 min) was 179.3 ± 7.7 min⁻¹, the “blood pressure Δ” value (mongrel cats [2]; 10 min vs 0) was -13.9 mm. Hg and the blood pressure (mongrel cats [2]; 30 min) was 91.2 ± 10.0 mm. Hg. The dp/dt (mongrel cats [2]; 30 min) was 766 ± 807 mm sec, the frequency (mongrel cats [2]; 30 min) was 177.7 ± 7.7 min⁻¹ and the “blood pressure Δ” value (mongrel cats [2]; 30 min vs 0) was -13.1 mm. Hg. For the same compound, the blood pressure (mongrel cats [2]; 60 min) was 94.2 ± 9.2 mm. Hg, the frequency (mongrel cats [2]; 60 min) was 175.0 ± 8.6 min⁻¹ and the “blood pressure Δ” value (mongrel cats [2]; 60 min vs 0) was -10.1 mm. Hg. For the same compound, the blood pressure (mongrel cats [2]; 120 min) was 95.0 ± 9.6 mm. Hg, the frequency (mongrel cats [2]; 120 min) was 166.7 ± 9.4 min⁻¹ and the “PAP: average pressure in the A. pulmonalis” value (shortened to “PAP: average pressure”) (mongrel dogs; dog i.v. ISDN/9c 1, 1d 0.5 mg/kg, 2 min) was 11.1 mm.Hg. For the same compound, the “PAP: average pressure” value (mongrel dogs; dog i.v. ISDN/9c 1, 1d 0.5 mg/kg, 5 min) was 11.5 mm.Hg, the “PAP: average pressure” value (mongrel dogs; dog i.v. ISDN/9c 1, 1d 0.5 mg/kg, 7 min) was 12.6 mm.Hg and the “PAP: average pressure” value (mongrel dogs; dog i.v. ISDN/9c 1, 1d 0.5 mg/kg, 10 min) was 12.6 mm.Hg. For the same compound, the “PAP: average pressure” value (mongrel dogs; dog i.v. ISDN/9c 1, 1d 0.5 mg/kg, 15 min) was 12.7 mm.Hg, the “PAP: average pressure” value (mongrel dogs; dog i.v. ISDN/9c 1, 1d 0.5 mg/kg, 20 min) was 12.6 mm.Hg and the “PAP: average pressure” value (mongrel dogs; dog i.v. ISDN/9c 1, 1d 0.5 mg/kg, 25 min) was 13.3 mm.Hg. For the same compound, the “PAP: average pressure” value (mongrel dogs; dog i.v. ISDN/9c 1, 1d 0.5 mg/kg, 30 min) was 13.5 mm.Hg, the “PAP: average pressure” value (mongrel dogs; dog i.v. ISDN/9c 1, 1d 0.5 mg/kg, 40 min) was 14.0 mm.Hg and the “PAP: average pressure” value (mongrel dogs; dog i.v. ISDN/9c 1, 1d 0.5 mg/kg, 50 min) was 14.0 mm.Hg. The “PAP: average pressure” value (mongrel dogs; dog i.v. ISDN/9c 1, 1d 0.5 mg/kg, 90 min) was 14.6 mm.Hg, the “PAP: average pressure” value (mongrel dogs; dog i.v. ISDN/9c 1, 1d 0.5 mg/kg, 120 min) was 15.0 mm.Hg and the “PAP: average pressure” value (mongrel dogs; dog i.v. ISDN/9c 1, 1d 0.5 mg/kg, 150 min) was 14.6 mm.Hg. The “PAP: average pressure” value (mongrel dogs; dog i.v. ISDN/9c 1, 1d 0.5 mg/kg, 180 min) was 15.5 mm.Hg, the “PAP: average pressure” value (mongrel dogs; dog i.v., before administration (v)) was 14.3 mm.Hg and the IC50 ([3]; read-out: ED50 for spasmolytic action, Noradrenaline spasm (50% inhibition), noradrenaline-induced contraction) was 1300 nM. It also gave an IC50 ([3]; read-out: ED50 for spasmolytic action, potassium chloride spasm (50% inhibition), potassium chloride-induced contraction) of 3100 nM.
